IC50 and Ki data for 8 compounds are collected here from ChEMBL document CHEMBL5726224, “Aminoester derivatives” (2017).

By UniProt entry, the sequences of proteins in these tests, tags left out.
UniProt P20309, whole entry: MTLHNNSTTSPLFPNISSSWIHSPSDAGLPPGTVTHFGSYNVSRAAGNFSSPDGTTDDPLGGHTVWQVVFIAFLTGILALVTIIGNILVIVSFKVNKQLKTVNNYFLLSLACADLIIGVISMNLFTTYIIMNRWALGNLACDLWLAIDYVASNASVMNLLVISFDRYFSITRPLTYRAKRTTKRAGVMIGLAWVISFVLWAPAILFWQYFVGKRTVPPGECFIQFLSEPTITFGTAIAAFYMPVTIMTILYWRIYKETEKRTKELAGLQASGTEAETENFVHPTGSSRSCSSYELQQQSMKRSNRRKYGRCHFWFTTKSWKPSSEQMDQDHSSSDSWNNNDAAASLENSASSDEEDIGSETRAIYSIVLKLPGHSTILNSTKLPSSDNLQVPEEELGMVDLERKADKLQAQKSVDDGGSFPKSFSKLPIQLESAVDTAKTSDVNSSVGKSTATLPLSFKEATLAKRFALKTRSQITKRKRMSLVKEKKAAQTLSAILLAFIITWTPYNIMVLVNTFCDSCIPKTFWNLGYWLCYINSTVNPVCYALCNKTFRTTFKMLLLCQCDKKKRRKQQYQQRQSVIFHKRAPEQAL

The target in the assay is Muscarinic acetylcholine receptor M3 (Homo sapiens, UniProt P20309). In words: The assay is carried out in 96-well polypropylene plates in a volume of 250 μl. […] The final assay concentration of DMSO is 0.5% (v/v). The plates are sealed and incubated for 2 h at room temperature on an orbital shaker (slow speed). Membranes are harvested onto 96-well unifilter GF/C filter plates pre-treated with 0.5% polyethyleneimine (v/v), using a filter manifold, washed four times with 200 μl of assay buffer. The plates are dried before addition of 50 μl of microscint-0, sealed then read in a Trilux Microbeta scintillation counter. IC50 values are determined from competition curves using a non-linear curve fitting program. Ki values are calculated from IC50 values by the Cheng and Prusoff equation.
Take `COc1ccc([C@H](Cc2c(Cl)c[n+]([O-])cc2Cl)OC(=O)c2ccc(CNC(C(=O)OC[C@H]3CCN3C)c3ccccc3)s2)cc1OC` (stereo partly drawn): the 50% inhibitory concentration (IC50) is less than 1 nM. `COc1ccc([C@H](Cc2c(Cl)c[n+]([O-])cc2Cl)OC(=O)c2ccc(CNC(C(=O)OCC3CCN(C)CC3)c3ccccc3)s2)cc1OC` (stereo partly drawn): the inhibitory constant (Ki) is 0.7 nM.

`COc1ccc([C@H](Cc2c(Cl)c[n+]([O-])cc2Cl)OC(=O)c2ccc(CNC(CO)(C(=O)OCC3CCN(C)CC3)c3ccccc3)s2)cc1OC` (stereo partly drawn): the Ki was 0.85 nM.

Regarding `COc1ccc([C@H](Cc2c(Cl)c[n+]([O-])cc2Cl)OC(=O)c2ccc(CNC(C(=O)OC[C@H]3CCCN3C)c3ccccc3)s2)cc1OC` (stereo partly drawn), the IC50 is less than 1 nM. Same read-out and setting: for `COc1ccc(C(Cc2c(Cl)c[n+]([O-])cc2Cl)OC(=O)c2ccc(CNC(C(=O)OCC3CCN(C)CC3)c3ccccc3)s2)cc1OCC1CC1` (stereo not drawn) the value was less than 1 nM.

In the case of `COc1ccc([C@H](Cc2c(Cl)c[n+]([O-])cc2Cl)OC(=O)c2ccc(CNC(C(=O)OCC3(F)CCN(C)CC3)c3ccccc3)s2)cc1OC` (stereo partly drawn), the IC50 is less than 1 nM. In the case of `COc1ccc([C@H](Cc2c(Cl)c[n+]([O-])cc2Cl)OC(=O)c2ccc(CNC(C(=O)OC[C@@H]3CCCN3C)c3ccccc3)s2)cc1OC` (stereo partly drawn), the IC50 was less than 1 nM.

With `COc1ccc([C@H](Cc2c(Cl)c[n+]([O-])cc2Cl)OC(=O)c2ccc(CNC(C(=O)OC[C@@H]3CCN3C)c3ccccc3)s2)cc1OC` (stereo partly drawn), the IC50 was less than 1 nM.

What is called IC50 is the concentration at which inhibition is half-maximal. The Ki is the dissociation constant of the complex between target and ligand, obtained from inhibition or displacement.
